The numbers were not newly measured in patent US20140080772A1, “TREATMENTS FOR MELANOMA” (The Board of Regents of the University of Texas System, priority 2012, published 2014), which cites them from elsewhere.

The chains behind the UniProt entries cited, without tags or fusion partners.
UniProt P49841, whole entry: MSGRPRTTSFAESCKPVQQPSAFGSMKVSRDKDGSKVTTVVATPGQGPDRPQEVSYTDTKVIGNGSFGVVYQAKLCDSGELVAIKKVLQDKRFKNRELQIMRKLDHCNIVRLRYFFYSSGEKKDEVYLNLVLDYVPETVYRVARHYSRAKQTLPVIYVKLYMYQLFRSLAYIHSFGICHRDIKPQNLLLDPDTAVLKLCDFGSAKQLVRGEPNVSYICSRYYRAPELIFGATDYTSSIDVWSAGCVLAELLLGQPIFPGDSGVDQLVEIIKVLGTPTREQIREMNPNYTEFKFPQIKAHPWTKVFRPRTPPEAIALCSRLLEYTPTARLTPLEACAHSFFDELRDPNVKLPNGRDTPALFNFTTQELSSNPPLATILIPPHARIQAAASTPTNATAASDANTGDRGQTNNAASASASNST

Each structure is given as a SMILES string.

This data set concerns the target GSK3β (Homo sapiens, UniProt P49841). The following applies: cited from earlier work.

As a reminder, the IC50 is the concentration that gives 50% inhibition. In the case of `Cn1cc(C2=C(c3cn(CCCSC(=N)N)c4ccccc34)C(=O)NC2=O)c2ccccc21` [RO 31-8220], the IC50 is 0.015 µM.
